## Yeast mating assay 1: variants of the scFv Ab-14

Values reported by Engelhart et al. 2022, doi:10.1038/s41597-022-01779-4 (FLAb copy).

Target: peptide PDVDLGDISGINAS, taken from heptad repeat 2 (HR2) of SARS-CoV-2 spike.

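The parent was found by panning a naive human phage display library on the peptide. Library AAYL50 holds single substitutions and randomly drawn double and triple substitutions in the CDRs. Affinity was read by AlphaSeq, a pooled yeast mating assay with surface-displayed partners. Binding brings cells together so that they mate, and sequencing counts the barcode pairs among the diploids. Read counts were normalised to the haploid input and turned into Kd by a linear fit to BCL2-family pairs of known affinity, for each replicate. Each pool was mated in three replicate cultures.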

The variants keep the heavy chain, the linker and the frameworks of Ab-14 (scFv order VH, three GGGGS repeats, VL).
VH: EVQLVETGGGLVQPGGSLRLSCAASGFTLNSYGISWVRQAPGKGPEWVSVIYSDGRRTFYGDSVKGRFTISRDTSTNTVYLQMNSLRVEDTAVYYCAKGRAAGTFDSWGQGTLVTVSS
VL: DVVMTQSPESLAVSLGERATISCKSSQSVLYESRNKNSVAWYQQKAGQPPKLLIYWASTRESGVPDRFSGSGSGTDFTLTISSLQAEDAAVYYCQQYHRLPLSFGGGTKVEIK

Each variant is given by its three light chain CDRs, as the data file delimits them; those of the parent are KSSQSVLYESRNKNSVA, WASTRES, QQYHRLPLS.
Scale: log10 of Kd in nM, estimated from mating counts; low values are strong binders.
"ND" marks a missing value. The strain was present, yet no cells mated with the target were sequenced in that replicate, which points to weak or no binding.
Nonspecific signal, from three strains lacking the peptide, appeared in 18% of pairings of library AAYL50, centred on 4.19 (5% of these signals below 2.99); values are not corrected for it. For each scFv, signals with the empty controls are counted beside the result, with their mean in brackets.

{"CDR-L1": "SSSQSVLYESRNKNSVA", "CDR-L2": "WASTRES", "CDR-L3": "EQYHRPPLS", "log10 Kd, replicates": "1.19 / 1.13 / 1.21", "control signals": "5 of 9 (4.79)"}
{"CDR-L1": "KSSQSVLYESPTKNSVA", "CDR-L2": "WASTRES", "CDR-L3": "QMYHRLPLS", "log10 Kd, replicates": "1.64 / 1.55 / 1.77", "control signals": "3 of 9 (3.99)"}
{"CDR-L1": "KSSQSVLYISRNKNSVA", "CDR-L2": "WASPRES", "CDR-L3": "QQYHRLPPS", "log10 Kd, replicates": "ND / ND / 6.14", "control signals": "4 of 9 (4.15)"}
{"CDR-L1": "KSSQSVLYESRNKNDVA", "CDR-L2": "WASTRES", "CDR-L3": "QQYHRIPLS", "log10 Kd, replicates": "ND / ND / 2.61", "control signals": "0 of 9"}
{"CDR-L1": "KSSACVLYESRNKNSVA", "CDR-L2": "WRSTRES", "CDR-L3": "QQYHRLPLS", "log10 Kd, replicates": "ND / ND / ND", "control signals": "1 of 9 (2.84)"}
{"CDR-L1": "KSSQSVLYESYNKNSVA", "CDR-L2": "WASTRWS", "CDR-L3": "QQYHRLPLS", "log10 Kd, replicates": "1.17 / 1.27 / 1.37", "control signals": "3 of 9 (5.39)"}
{"CDR-L1": "KQSQSYLYESRNKNSVA", "CDR-L2": "WASTRET", "CDR-L3": "QQYHRLPLS", "log10 Kd, replicates": "0.30 / 0.74 / 0.92", "control signals": "0 of 9"}
{"CDR-L1": "KSSQSVLYESNNKNSVA", "CDR-L2": "WASTRES", "CDR-L3": "QQYHRLPLL", "log10 Kd, replicates": "0.41 / 0.67 / 0.57", "control signals": "2 of 9 (4.79)"}
{"CDR-L1": "KSSQSVLYESRNKNSVA", "CDR-L2": "WAKTRES", "CDR-L3": "QIYHILPLS", "log10 Kd, replicates": "ND / ND / ND", "control signals": "2 of 9 (2.91)"}
{"CDR-L1": "KSSQSVLYESRNKNSVA", "CDR-L2": "WASTRES", "CDR-L3": "QQYHRLQLS", "log10 Kd, replicates": "ND / ND / ND", "control signals": "1 of 9 (2.27)"}
{"CDR-L1": "KSSWSVLYESRNKNSVA", "CDR-L2": "WASTKES", "CDR-L3": "QQYHPLPLS", "log10 Kd, replicates": "2.26 / 2.71 / 2.44", "control signals": "1 of 9 (4.07)"}
{"CDR-L1": "KHSNSVLYESRNKNSVA", "CDR-L2": "WASTRES", "CDR-L3": "QQYHRLWLS", "log10 Kd, replicates": "1.07 / 1.08 / 1.16", "control signals": "2 of 9 (4.26)"}
{"CDR-L1": "KSSQRVLYESRNSNSVA", "CDR-L2": "WASTRES", "CDR-L3": "QQYHRLPDS", "log10 Kd, replicates": "4.22 / ND / 5.29", "control signals": "2 of 9 (4.10)"}
{"CDR-L1": "KSSQSVLYPSRNKNSVA", "CDR-L2": "WAWKRES", "CDR-L3": "QQYHRLPLS", "log10 Kd, replicates": "3.56 / 2.83 / 2.86", "control signals": "3 of 9 (3.68)"}
{"CDR-L1": "KESQSVLYESRNKPSVA", "CDR-L2": "WASTRES", "CDR-L3": "QQYHRLPLE", "log10 Kd, replicates": "ND / ND / 3.10", "control signals": "0 of 9"}
{"CDR-L1": "KSSQSVGYESRNKNSVA", "CDR-L2": "WASARES", "CDR-L3": "QPYHRLPLS", "log10 Kd, replicates": "ND / ND / 4.41", "control signals": "1 of 9 (4.01)"}
{"CDR-L1": "KSSQSVLYQERNKNQVA", "CDR-L2": "WASTRES", "CDR-L3": "QQYHRLPLS", "log10 Kd, replicates": "ND / ND / ND", "control signals": "0 of 9"}
{"CDR-L1": "KSSQSVLWESRNKNSVA", "CDR-L2": "WASVRES", "CDR-L3": "QQYLRLPLS", "log10 Kd, replicates": "1.36 / 1.39 / 1.42", "control signals": "4 of 9 (4.89)"}
{"CDR-L1": "KSSQSVLYESRNKNGRA", "CDR-L2": "WASTRES", "CDR-L3": "HQYHRLPLS", "log10 Kd, replicates": "ND / ND / ND", "control signals": "1 of 9 (3.46)"}
{"CDR-L1": "KSSQSVLYEKRNKNSVA", "CDR-L2": "WASTRES", "CDR-L3": "QQYHRKPFS", "log10 Kd, replicates": "ND / 3.20 / 2.29", "control signals": "0 of 9"}
{"CDR-L1": "WSSQSVLYESRNKHSVA", "CDR-L2": "WQSTRES", "CDR-L3": "QQYHRLPLS", "log10 Kd, replicates": "ND / 3.14 / ND", "control signals": "6 of 9 (3.92)"}
{"CDR-L1": "KSYQSVLYESRNKNSSA", "CDR-L2": "WASTRES", "CDR-L3": "QQKHRLPLS", "log10 Kd, replicates": "ND / 3.23 / ND", "control signals": "0 of 9"}
{"CDR-L1": "KSSQSVLYEYRNKNSVA", "CDR-L2": "WASTPES", "CDR-L3": "EQYHRLPLS", "log10 Kd, replicates": "ND / ND / ND", "control signals": "0 of 9"}
{"CDR-L1": "KSSQSVLYESRNKESVA", "CDR-L2": "WASHRES", "CDR-L3": "QQYHRYPLS", "log10 Kd, replicates": "1.23 / 1.37 / 1.79", "control signals": "0 of 9"}
{"CDR-L1": "KSSQSVLYESRNENSVA", "CDR-L2": "WASTRES", "CDR-L3": "QQYHRLPLG", "log10 Kd, replicates": "3.08 / 2.16 / 2.42", "control signals": "0 of 9"}

The opening 4 entries, copied out:

| CDR-L1 | CDR-L2 | CDR-L3 | log10 Kd, replicates | control signals |
|---|---|---|---|---|
| SSSQSVLYESRNKNSVA | WASTRES | EQYHRPPLS | 1.19 / 1.13 / 1.21 | 5 of 9 (4.79) |
| KSSQSVLYESPTKNSVA | WASTRES | QMYHRLPLS | 1.64 / 1.55 / 1.77 | 3 of 9 (3.99) |
| KSSQSVLYISRNKNSVA | WASPRES | QQYHRLPPS | ND / ND / 6.14 | 4 of 9 (4.15) |
| KSSQSVLYESRNKNDVA | WASTRES | QQYHRIPLS | ND / ND / 2.61 | 0 of 9 |